## Apparent affinities of Ab-14 variants for a coronavirus HR2 peptide

All variants were tested on one target, the spike HR2 peptide PDVDLGDISGINAS (SARS-CoV-2).

Each scFv is VH, three GGGGS repeats, VL, as in the parent Ab-14, and differs from it in the CDRs of the light chain only.
VH: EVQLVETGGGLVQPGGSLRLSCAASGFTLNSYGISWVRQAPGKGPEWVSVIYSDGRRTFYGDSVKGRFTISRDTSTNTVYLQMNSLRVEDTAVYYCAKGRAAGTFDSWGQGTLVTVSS
VL: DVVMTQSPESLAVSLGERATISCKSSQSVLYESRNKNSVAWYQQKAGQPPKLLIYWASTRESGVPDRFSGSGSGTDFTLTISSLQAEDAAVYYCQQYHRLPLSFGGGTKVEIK

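The starting antibody came from a phage panning campaign against this peptide. The library (AAYL50) carries one to three amino acid substitutions per variant, with no insertions or deletions. Affinity was read by AlphaSeq, a pooled yeast mating assay with surface-displayed partners. Binding brings cells together so that they mate, and sequencing counts the barcode pairs among the diploids. The ratio of observed to expected reads was calibrated, replicate by replicate, on BCL2-family standards whose Kd was known from biolayer interferometry. Mating was done three times.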

The parent's light chain CDRs are KSSQSVLYESRNKNSVA, WASTRES, QQYHRLPLS; each variant's own CDRs replace them letter for letter.
Values are log10 of the apparent Kd in nM; lower means stronger binding.
Averages over replicates are reported, and they cover detected replicates only.
Where no diploid with the target was found in any replicate, the entry reads "nd": below detection, most likely a poor binder, though not proof of it.
As a blank, each scFv also met three strains without target: over library AAYL50, 18% of these pairings were detected, typically at 4.19 and seldom below 2.99. For each scFv, signals with the empty controls are counted beside the result.

| CDR-L1 | CDR-L2 | CDR-L3 | mean, log10 nM | replicates with signal | control signals |
|---|---|---|---|---|---|
| KSSQSVLYEMRNKNSVA | WASTRPS | QQRHRLPLS | nd | 0/3 | 1/9 |
| KSSQSVLFESRNANSVR | WASTRES | QQYHRLPLS | nd | 0/3 | 0/9 |
| KSSQSVLYESRNKVSVA | WISTRES | QQYHRGPLS | 2.59 | 1/3 | 0/9 |
| KSSQSVLYESRNKNSVA | PASTRES | QQYHRLPVS | nd | 0/3 | 2/9 |
| KSSQSVLYESRNKYSVA | EASSRES | QQYHRLPLS | nd | 0/3 | 2/9 |
| KSSNSVLYESRNKNSVA | WASTRES | QCYPRLPLS | nd | 0/3 | 0/9 |
| KSSQSVQYISRNKFSVA | WASTRES | QQYHRLPLS | 4.29 | 1/3 | 0/9 |
| KSSQSVLYESRTKNSVI | WASIRES | QQYHRLPLS | nd | 0/3 | 3/9 |
| KSSTSVLYESRNKNSVA | WASTRES | QQYKTLPLS | 1.15 | 3/3 | 3/9 |
| KSSQSVRYESNNKNSVA | WASTRES | QQYGRLPLS | 1.05 | 3/3 | 0/9 |
| KSSQSVLYEDVNKNSVA | WASTRES | QQYLRLPLS | 0.97 | 3/3 | 2/9 |
| KSSQSVLYESRNTNSVA | WASTRED | QKYHRLPLS | 4.11 | 1/3 | 3/9 |
| KSIQSVLRESRNKNSLA | WASTRES | QQYHRLPLS | nd | 0/3 | 0/9 |
| GSSQSVLYESRNKNSVA | WASDRES | QQQHRLPLS | 5.65 | 3/3 | 3/9 |
| KSSQSVLYESRNKNSVA | WASTRES | QCYHRVPLS | 1.32 | 3/3 | 2/9 |
| KSSQSVLYESRNKNSVA | WASTRSS | QQSHRLTLS | 2.37 | 2/3 | 3/9 |
| KMSQSVLYESRNKNSVA | WRSTRES | QQYNRLPLS | 1.47 | 3/3 | 2/9 |
| KSSQSVLYWSRNKNSVA | WASTRES | QQYCALPLS | 2.10 | 3/3 | 1/9 |
| KSSQSVLYESRNKNSVA | WASTRET | QLYHRLPLS | 0.78 | 3/3 | 3/9 |
| KPSQSVLYESRNKNSVA | IASTRES | QQYHRLPAS | nd | 0/3 | 2/9 |
| KSSQSVLRESRNKNSVA | WDSTRES | QQYQRLPLS | 2.26 | 3/3 | 1/9 |
| KSSQSVLYESRNKNSVA | WASTRWS | QQYQRLPVS | 2.52 | 2/3 | 0/9 |
| KSSQSVMYEYRNKVSVA | WASTRES | QQYHRLPLS | 3.01 | 3/3 | 1/9 |
| KSSQQVLLNSRNKNSVA | WASTRES | QQYHRLPLS | 0.82 | 3/3 | 2/9 |
| KSSQSVLYESRNKNSVA | WANTRES | VQGHRLPLS | 3.93 | 3/3 | 5/9 |
| QSSQSVLYESRNKNSVQ | WASTRES | QQYHRLPGS | 2.59 | 1/3 | 1/9 |
| KSSQSVLYEWRNKESVA | WASTRES | QQYHRLPLS | 2.38 | 3/3 | 2/9 |
| QSSPSVLYESRDKNSVA | WASTRES | QQYHRLPLS | nd | 0/3 | 1/9 |
| KSSQSQLYESRNKNSVA | WASTRES | QQYHRLALS | 1.75 | 3/3 | 1/9 |
| KSCLSVLYESRNKNSVA | WASTRFS | QQYHRLPLS | 3.51 | 2/3 | 2/9 |
| KSSQSVCYESRNKNSVH | WASTREY | QQYHRLPLS | 5.06 | 1/3 | 2/9 |
| KSSQSVLYESRNKNSVA | HASCRES | KQYHRLPLS | 2.05 | 3/3 | 3/9 |
| QESQSVLYESRNKNSVA | WASTRES | QQYHRLPLI | 1.31 | 3/3 | 0/9 |
| KSSQSVLYESRNKNYVA | WASTRES | QQYHRFPLG | 3.42 | 3/3 | 3/9 |
| KSSQSVLYNSMNKNSVL | WASTRES | QQYHRLPLS | nd | 0/3 | 0/9 |
| KSSQSVLYESRNKNTVA | FARTRES | QQYHRLPLS | nd | 0/3 | 0/9 |
| KSSQLILYESRNKNSVA | WGSTRES | QQYHRLPLS | 0.80 | 3/3 | 2/9 |
| KSSQSVLYESKNKNSVA | WASTRES | QQYHRLPTS | 2.15 | 3/3 | 1/9 |
| KSSQSVLYESRNKNSVA | WAYTGES | QQYHRLPKS | nd | 0/3 | 0/9 |
| KSSDSVLYESRNKNSVA | WASTRES | QQYHRLKAS | nd | 0/3 | 0/9 |

Further variants, results first:

| mean, log10 nM | replicates with signal | control signals | CDR-L1 | CDR-L2 | CDR-L3 |
|---|---|---|---|---|---|
| 3.60 | 3/3 | 1/9 | GSSQPVLYESRRKNSVA | WASTRES | QQYHRLPLS |
| 2.23 | 3/3 | 3/9 | KNSQSVLYESRNGNSVA | WASTRES | QQYYRLPLS |
| nd | 0/3 | 0/9 | KSFQSVLYESRNKNSVA | WKSTRES | QQYHRLVLS |
| 2.18 | 3/3 | 5/9 | KSSQSVPYESRNKNSVA | YASRRES | QQYHRLPLS |
| nd | 0/3 | 1/9 | KRSLLVLYESRNKNSVA | WASTRES | QQYHRLPLS |
| 3.97 | 1/3 | 1/9 | KSSQSVLYESRYKNSVA | WASTRES | RLYHRLPLS |
| 0.33 | 3/3 | 1/9 | KSSQSELYESRNKNSVA | WASKRES | QQYFRLPLS |
| 1.65 | 3/3 | 5/9 | KSSQSVLYESRNKDSVA | WASTRES | QQAHRLPNS |
| nd | 0/3 | 0/9 | KSSKSVLYESRNKNSQN | WASTRES | QQYHRLPLS |
| 2.71 | 2/3 | 0/9 | KSSQSVPYEKRNKNSVA | WASTRES | QAYHRLPLS |
| nd | 0/3 | 2/9 | KSSQSVLYESRNKNSVW | WHSPRES | QQYHRLPLS |
| 3.69 | 1/3 | 0/9 | KSSQSVLYESRNKNMSA | WQSTRES | QQYHRLPLS |
| 3.91 | 1/3 | 2/9 | KSSQSDLYESRNKNEVD | WASTRES | QQYHRLPLS |
| nd | 0/3 | 3/9 | KSSQSALYLSRNKNSVA | WASCRES | QQYHRLPLS |
| 3.97 | 3/3 | 1/9 | KSSQYVLYESRNMNSVA | WASTRES | QHYHRLPLS |
| 1.08 | 3/3 | 4/9 | KSSQSVLYESWNKNSVA | WASTRNS | QQYHRLPLS |
| nd | 0/3 | 5/9 | KSSQSVLYESRNKNSVA | WASTRES | QQYGRKPLS |
| nd | 0/3 | 0/9 | KSSYSVLYESRNKNSQA | WASTRES | QQDHRLPLS |
| nd | 0/3 | 0/9 | KSSQSVLYESRNKNSVA | WASTREH | QQKHRLLLS |
| nd | 0/3 | 1/9 | KSSQSVLYESRNKNSVA | WDSTRYS | QQVHRLPLS |
| nd | 0/3 | 5/9 | NSSQSVLYESRNKNTVA | WASTRES | QQYWRLPLS |
| 4.13 | 1/3 | 0/9 | KISQSVLYESRNKPSVA | WASTRES | MQYHRLPLS |
| 3.31 | 1/3 | 0/9 | KQSQSVLYESRNKNSVA | WASTRES | QQYHRTPLS |
| 3.11 | 3/3 | 7/9 | KSSQSHLKESRNKASVA | WASTRES | QQYHRLPLS |
| 2.73 | 3/3 | 2/9 | KWSWSVLYESRNKNSVA | WASTRES | QQGHRLPLS |
| 1.59 | 3/3 | 5/9 | KSSQSVLYESTNHNSVA | WAGTRES | QQYHRLPLS |
| 0.68 | 3/3 | 0/9 | KSSQSVLYESRNLNSVA | WASTRES | QQYHRLEIS |
| 1.82 | 3/3 | 0/9 | KSSQSVLYESRNKNLVA | AASTRES | QQYWRLPLS |
| 2.20 | 3/3 | 0/9 | KSSQSVLYESRNKNSVA | AASTREE | QQYTRLPLS |
| nd | 0/3 | 1/9 | KSSQSVLYESRNKNSVA | WCSTRES | QQILRLPLS |
| nd | 0/3 | 1/9 | KSSACVLYESRNKNSVA | WRSTRES | QQYHRLPLS |
| nd | 0/3 | 4/9 | KSSQSVLYESRNKNSVA | WCSTRES | QQYHDEPLS |
| nd | 0/3 | 0/9 | KSIQSVLYESRNKNSAA | WASTAES | QQYHRLPLS |
| 3.89 | 1/3 | 1/9 | LSSQSVLYESRSKNSTA | WASTRES | QQYHRLPLS |
| 2.74 | 3/3 | 2/9 | KSSQGVLYESRNKPSLA | WASTRES | QQYHRLPLS |
| 3.45 | 1/3 | 1/9 | KSSQSVLHCSRNKNSVA | WASTRES | RQYHRLPLS |
| 4.01 | 1/3 | 5/9 | KSSQSVLYESRNKNSVA | CASTRES | QQYHLQPLS |
| nd | 0/3 | 0/9 | KSSQSVLYESRNKNSRA | WTSTRES | QQYHRLPLS |
| nd | 0/3 | 0/9 | KSSQSVLYESRNKNSVA | WASTREH | QKYHRHPLS |
| 1.00 | 3/3 | 2/9 | KSSQSVLYESRNQQSVA | WASTREL | QQYHRLPLS |

From the AlphaSeq antibody data of Engelhart et al. 2022 (doi:10.1038/s41597-022-01779-4), copy in the FLAb collection.